## Measured affinities in a library of Ab-14 light chain variants

Binding partner: SARS-CoV-2 spike HR2 peptide, sequence PDVDLGDISGINAS.

Each scFv is VH, the linker GGGGSGGGGSGGGGS, VL, as in the parent Ab-14, and differs from it in the CDRs of the light chain only.
VH: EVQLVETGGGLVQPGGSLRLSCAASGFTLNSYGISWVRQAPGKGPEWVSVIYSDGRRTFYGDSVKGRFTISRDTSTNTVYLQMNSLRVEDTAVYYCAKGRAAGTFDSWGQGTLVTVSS
VL: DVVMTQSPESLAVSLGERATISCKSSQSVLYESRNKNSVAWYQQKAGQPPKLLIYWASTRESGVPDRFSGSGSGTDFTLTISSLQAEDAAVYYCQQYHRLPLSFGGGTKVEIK

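Phage display of a naive human antibody library on the peptide gave the parent. In library AAYL50, one, two or three CDR residues were substituted; doubles and triples were drawn at random. Affinity was read by AlphaSeq, a pooled yeast mating assay with surface-displayed partners. Pairs that bind mate more often; barcode pairs of the diploids are counted by sequencing. Each replicate has its own calibration line, from reference interactions of the BCL2 family. Mating was done three times.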

Substitutions are numbered in sequence along the VL above, starting at 1 (not Kabat). Affinities are written as log10 Kd with Kd in nM; a lower number is a better binder. The mean shown is taken over the replicates in which the pair was detected. "nd" marks a missing value. The strain was present, yet no cells mated with the target were sequenced in that replicate, which points to weak or no binding.

For S25M V29E H98M, the assay gave 1.58, 1.90, 1.58 (mean 1.69; controls 6 of 9).
For S33Q K36Q, the assay gave 0.48, 0.88, 0.85 (mean 0.74; controls 0 of 9).
For S25D T59D Q96R, the assay gave nd, nd, nd (controls 2 of 9).
For S25A S26D L30T, the assay gave 0.45, 0.72, 0.64 (mean 0.60; controls 1 of 9).
For N35L A57L S62E, the assay gave 2.41, 3.01, 3.06 (mean 2.83; controls 1 of 9).
For V29W S33Q R99W, the assay gave 0.52, 0.81, 0.68 (mean 0.67; controls 3 of 9).
For V29A L30A T59F, the assay gave 1.44, 1.45, 1.62 (mean 1.50; controls 2 of 9).
For L30G N37C Y97N, the assay gave nd, nd, nd (controls 3 of 9).
For N37P W56P L102G, the assay gave 5.74, 3.99, 5.94 (mean 5.22; controls 6 of 9).
For K24A E61T R99W, the assay gave nd, nd, nd (controls 0 of 9).
For R60A E61F P101D, the assay gave 3.72, 3.23, 4.96 (mean 3.97; controls 4 of 9).
For S38D W56S T59Y, the assay gave 0.09, 0.42, 0.22 (mean 0.24; controls 3 of 9).
For R34L Q96Y H98G, the assay gave 0.15, 0.28, 0.37 (mean 0.27; controls 1 of 9).
For Q27F Y31E S58A, the assay gave 0.35, 0.71, 0.66 (mean 0.57; controls 1 of 9).
For K24F K36P V39Y, the assay gave nd, nd, nd (controls 3 of 9).
For V29T E61M Y97H, the assay gave 3.46, 3.82, nd (mean 3.64; controls 1 of 9).
For A40M H98T L102D, the assay gave 4.60, nd, nd (controls 0 of 9).
For L30V H98P L100C, the assay gave 1.09, 1.15, 0.99 (mean 1.08; controls 1 of 9).

The remaining entries, values ahead:

Result 0.51, 0.65, 0.49 (mean 0.55; controls 5 of 9), variant K36V S62D L102F.
Result 3.04, 4.95, nd (mean 4.00; controls 2 of 9), variant K24D S26L S103I.
Result 2.32, 2.19, 1.78 (mean 2.10; controls 0 of 9), variant L30A R34N.
Result nd, 3.43, nd (controls 2 of 9), variant Q27H R99W L102E.
Result -0.04, 0.41, 0.12 (mean 0.16; controls 2 of 9), variant S26G E32Q W56S.
Result 3.01, 2.65, 3.46 (mean 3.04; controls 0 of 9), variant Y31A R60H H98K.
Result 2.43, 2.15, 1.94 (mean 2.17; controls 3 of 9), variant L30R Q95M.
Result nd, nd, nd (controls 0 of 9), variant S25G R60Q.
Result 1.82, nd, nd (controls 0 of 9), variant S25K E61D.
Result 0.99, 1.14, 1.02 (mean 1.05; controls 1 of 9), variant Y31H S33E Y97K.
Result 1.43, 1.63, 1.63 (mean 1.56; controls 5 of 9), variant V29P N35V.
Result nd, nd, nd (controls 3 of 9), variant S28L K36F A40S.
Result 1.39, 1.66, 1.53 (mean 1.53; controls 0 of 9), variant E32S Y97L H98E.
Result 4.00, 2.56, 3.39 (mean 3.31; controls 2 of 9), variant K36L N37V Q96Y.
Result nd, nd, nd (controls 0 of 9), variant Q27H W56Y Q95L.
Result nd, 3.14, 3.61 (mean 3.37; controls 0 of 9), variant E61W Q96P L102Q.
Result nd, nd, nd (controls 1 of 9), variant S38H E61V Y97R.
Result 4.32, 3.12, 3.31 (mean 3.59; controls 3 of 9), variant A40E E61P R99E.
Result 1.50, 1.36, 1.24 (mean 1.37; controls 0 of 9), variant E32N N37F.

For reference, 3 entries of the list once more:

changes	log10 Kd (nM) by replicate	log10 Kd (nM), mean	control signals
S38D W56S T59Y	0.09, 0.42, 0.22	0.24	3/9
S28L K36F A40S	nd, nd, nd	nd	3/9
V29A L30A T59F	1.44, 1.45, 1.62	1.50	2/9

As a blank, each scFv also met three strains without target: over library AAYL50, 18% of these pairings were detected, typically at 4.19 and seldom below 2.99. Also given: how often the same scFv was detected with the empty control strains.

Source: Engelhart et al. 2022 (doi:10.1038/s41597-022-01779-4), MIT Lincoln Laboratory and A-Alpha Bio; data file from the FLAb repository.